These are literature values, as cited in article PMC6542369 (Bioorganic & medicinal chemistry letters, 2017).

Protein sequences, listed by entry. Tags and fused reporters are not part of them.
UniProt P08173, whole entry: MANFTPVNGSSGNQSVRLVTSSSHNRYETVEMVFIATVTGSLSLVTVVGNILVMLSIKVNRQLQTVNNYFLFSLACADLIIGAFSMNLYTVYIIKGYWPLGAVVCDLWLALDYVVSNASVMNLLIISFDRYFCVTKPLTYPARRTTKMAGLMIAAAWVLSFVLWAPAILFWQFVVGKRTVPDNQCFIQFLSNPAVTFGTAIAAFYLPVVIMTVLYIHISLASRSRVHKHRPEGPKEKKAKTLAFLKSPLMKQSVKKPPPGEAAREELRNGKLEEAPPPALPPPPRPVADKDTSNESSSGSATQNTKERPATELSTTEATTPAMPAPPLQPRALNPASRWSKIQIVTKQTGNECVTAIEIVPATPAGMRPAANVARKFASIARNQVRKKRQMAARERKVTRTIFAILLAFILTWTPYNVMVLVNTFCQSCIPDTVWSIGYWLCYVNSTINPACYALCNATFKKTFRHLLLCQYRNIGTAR

pEC50: −log10 of the molar value.

This series deals with hM4 (Homo sapiens, UniProt P08173). The note with it: read-out: hM4 EC50; previously reported; cited from earlier work.

`Cc1nnc2sc(C(=O)NCc3ccc(S(=O)(=O)C(F)(F)F)cc3)c(N)c2c1C` [VU0476406]: the negative logarithm of the EC50 (pEC50) was 7.04.

For orientation: pEC50 means −log10 of the EC50, conventionally taken in molar units.
